Reference: patent publication US6984394B2, “Plastically deformable implant” (Bausch & Lomb Incorporated, priority 1999, dated 2006)

Assay: Surface tension of surface-active agent
Format: physicochemical
Conditions: in aqueous solution
Text: According to the present invention, the term fluorine-containing gel is defined as a gel-like preparation which comprises a minimum of one fluorocarbon. In especially useful embodiments of the present invention, the fluorine-containing gel comprises essentially three components, i.e., a fluorocarbon, a fluorine-containing surface-active agent, and water. It is possible for different additives to be added to the fluorocarbon-containing and aqueous components. Certain compositions of surface-active agents, fluorocarbons, and water form gels which are able to completely recover their gel structure after they have been liquefied, for example, by exposure to mechanical pressure or heat. This property of the gels according to the present invention makes it possible for them to be used as a generic implant over a long period of time. If the implant material of such an implant that has been inserted into a bodily orifice were to liquefy, for example, as a result of short-term pressure, the gel structure, due to the reversibility described, would be able to recover when in a state of rest. […] The stability of the aphrons depends on the intensity of the interaction between water, surface-active agent, and perfluorocarbon, which in turn is determined by the surface properties and the ability of the individual phases to spread on each other's surface. […]

Perfluorooctanoic acid amidotrimethyl ammonium iodide [Example B98]
σO = surface tension: σO < 20 mNm
